Amino acid sequences for entries named in this document (tags omitted). Residues count along the entry.
UniProt P03952, 20-390 partner limits assumed: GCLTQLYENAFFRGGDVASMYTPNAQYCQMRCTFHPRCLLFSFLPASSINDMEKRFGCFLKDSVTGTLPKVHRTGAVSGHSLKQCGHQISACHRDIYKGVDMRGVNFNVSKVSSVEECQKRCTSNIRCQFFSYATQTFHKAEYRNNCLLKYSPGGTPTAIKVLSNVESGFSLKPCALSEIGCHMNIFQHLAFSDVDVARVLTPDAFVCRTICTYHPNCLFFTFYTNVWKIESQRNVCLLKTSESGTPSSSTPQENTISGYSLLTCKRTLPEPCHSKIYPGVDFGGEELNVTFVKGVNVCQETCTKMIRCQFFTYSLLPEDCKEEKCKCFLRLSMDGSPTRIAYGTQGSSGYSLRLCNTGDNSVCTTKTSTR
UniProt P03952, 391-638 limits assumed: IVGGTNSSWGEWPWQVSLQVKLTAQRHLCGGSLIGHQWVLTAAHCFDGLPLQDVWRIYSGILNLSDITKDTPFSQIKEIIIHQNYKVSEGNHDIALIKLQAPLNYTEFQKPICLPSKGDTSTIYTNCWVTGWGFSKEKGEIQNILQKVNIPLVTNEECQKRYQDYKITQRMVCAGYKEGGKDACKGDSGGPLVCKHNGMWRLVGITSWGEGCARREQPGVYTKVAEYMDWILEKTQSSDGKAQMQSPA

According to US20240226106A1, “INHIBITORS OF PLASMA KALLIKREIN” (SHIRE HUMAN GENETIC THERAPIES, INC., priority 2021, published 2024):

Experiments:
plasma kallikrein = target: T1, plasma kallikrein (Homo sapiens, UniProt P03952); test: Neat human plasma assay (fluorogenic peptide), contact pathway-activated plasma; format: biochemical; conditions: read-out: Human Plasma Assay: IC90
T1 construct: from tissue; host or cells: sodium citrate collected human plasma
Method: To analyze inhibition of plasma kallikrein in an ex vivo setting, the potency of compounds was measure in contact pathway-activated plasma assays. In a fluorogenic peptide substrate assay, test compounds dissolved in DMSO were added to sodium citrate collected human or rat plasma in a 96-well microplate. Alternatively, citrated plasma was collected from rats administered the compounds orally or by IV. 10 nM of human FXIIa (Enzyme Research Laboratories) diluted in PKa buffer (20 mM Tris-HCl, pH 7.5, 150 mM NaCl, 1 mM EDTA, 0.100 PEG-8000, and 0.1% Triton X-100) was added to the plasma, followed by the 100 μM of the profluorescent, synthetic plasma kallikrein substrate PFR-AMC (also diluted in PKa buffer). Final plasma concentration in the reaction was […]. Fluorescence was immediately monitored by excitation/emission wavelengths of 360 nm/480 nm respectively over a period of 5 minutes in a microplate reader. The resulting linear increase in fluorescence emission (reflecting PKa proteolysis of PFR-AMC substrate) was fit to extract a proteolytic rate (fluorescent units over time), and this rate was subsequently plotted against compound inhibitor concentration. Resulting plots were fit to a standard 4-parameter IC50/C90 equation to determine min/max values, IC50/90, and slope. All experimental steps were performed at room temperature.

[1] = target: human activated kallikrein enzyme (Homo sapiens, UniProt P03952); test: Inhibition of human activated plasma kallikrein, fluorogenic peptide substrate (PFR-AMC), 500 pM enzyme format; format: biochemical
Method: Compounds were evaluated for inhibition of the human activated kallikrein enzyme in two formats of an assay employing a fluorogenic peptide substrate. In one assay format, the concentrations of reagents were as follows: 20 mM Tris pH 7.5, 1 mM EDTA, 150 mM sodium chloride, 0.1% PEG-400, 0.1% Triton X-100, 500 pM activated kallikrein enzyme, […] Pro-Phe-Arg-7-amido-4-methylcoumarin (PFR-AMC) substrate. Prior to reaction initiation with substrate, enzyme and inhibitors were preincubated for 30 min at room temperature. After initiation with substrate, reactions were incubated for 10 min at room temperature and fluorescence emission at 460 nm from 380 nm excitation measured with a microplate reader. In another assay format, the concentrations of reagents were as follows: 20 mM Tris pH 7.5, 1 mM EDTA, 150 mM sodium chloride, 0.1% PEG-400, 0.1% Triton X-100, 5 pM activated kallikrein enzyme, 300 uM PFR-AMC substrate. Prior to reaction initiation with substrate, enzyme and inhibitors were preincubated for 30 min at room temperature. After initiation with substrate, reactions were incubated for 18 hr at room temperature and fluorescence emission at 460 nm from 380 nm excitation measured with a microplate reader.
Table 8 provides the results of the assay in the format with 500 pM activated kallikrein assay.

[2] = 500 pM activated kallikrein, PFR-AMC substrate, 30 min preincubation, 10 min reaction, room temperature, read-out: Primary Dose Response Assay: Average EC50

Molecule | IC90 (plasma kallikrein) | EC50 [1] | EC50 [1, 2] | IC90 (plasma kallikrein; citrated human plasma, 10 nM human FXIIa activation, 100 μM PFR-AMC, room temperature)
Cc1ccnc([C@H]2C[C@@H]2C(=O)Nc2cc(NC(C)c3cc4cc(C5CC5)cc(N5CC(=O)N(C)C5=O)n4n3)ncn2)n1 (single isomer, unassigned) [Example 95, (1S,2S)—N-(6-(((R *)-1-(5-cyclopropyl-7-(3-methyl-2,4-dioxoimidazolidin-1-yl)pyrazolo[1,5-a]pyridin-2-yl)ethyl)amino)pyrimidin-4-yl)-2-(4-methylpyrimidin-2-yl)cyclopropane-1-carboxamide] | < 500 nM | < 2.5 nM | – | –
Cc1ccnc([C@H]2C[C@@H]2C(=O)Nc2cc(NCc3ccc(N4CC5C(C4)C5(F)F)nc3C)nc(C)n2)n1 (stereo partly drawn) [Example 88, (S,2S)—N-(6-(((6-(6,6-difluoro-3-azabicyclo[3.1.0]hexan-3-yl)-2-methylpyridin-3-yl)methyl)amino)-2-methylpyrimidin-4-yl)-2-(4-methylpyrimidin-2-yl)cyclopropane-1-carboxamide] | 5000 to 65000 nM | 2.5 to 25 nM | – | –
Cc1ccnc([C@H]2C[C@@H]2C(=O)Nc2cc(NC(C)c3cn4nc(C5CC5)cc(N5CC(=O)N(C)C5=O)c4n3)nc(C)n2)n1 (stereo partly drawn) [Example 89, (1S,2S)—N-(6-((1-(6-cyclopropyl-8-(3-methyl-2,4-dioxoimidazolidin-1-yl)imidazo[1,2-b]pyridazin-2-yl)ethyl)amino)-2-methylpyrimidin-4-yl)-2-(4-methylpyrimidin-2-yl)cyclopropane-1-carboxamide] | 500 to 5000 nM | < 2.5 nM | – | –
Cc1ccnc([C@H]2C[C@@H]2C(=O)Nc2cc(N[C@H](C)c3cc4cc(C5CC5)cc(N5CC(=O)N(C)C5=O)n4n3)ncn2)n1 [Example 96, (1S,2S)—N-(6-(((R^•)-1-(5-cyclopropyl-7-(3-methyl-2,4-dioxoimidazolidin-1-yl)pyrazolo[1,5-a]pyridin-2-yl)ethyl)amino)pyrimidin-4-yl)-2-(4-methylpyrimidin-2-yl)cyclopropane-1-carboxamide] | – | – | 25 to 500 nM | –
Cc1ccnc([C@H]2C[C@@H]2C(=O)Nc2cc(N[C@H](C)c3cc4cc(C5CC5)cc(N5CC6CC6C5=O)n4n3)ncn2)n1 (stereo partly drawn) [Example 103, (1S,2S)—N-(6-(((1R^•)-1-(5-cyclopropyl-7-(2-oxo-3-azabicyclo[3.1.0]hexan-3-yl)pyrazolo[1,5-a]pyridin-2-yl)ethyl)amino)pyrimidin-4-yl)-2-(4-methylpyrimidin-2-yl)cyclopropane-1-carboxamide] | < 500 nM | < 2.5 nM | – | –
(1S,2S)—N-(6-(((R^•)-1-(5-cyclopropyl-7-(3-methyl-2,4-dioxoimidazolidin-1-yl)pyrazolo[1,5-a]pyrimidin-2-yl)ethyl)amino)pyrimidin-4-yl)-2-(4-methylpyrimidin-2-yl)cyclopropane-1-carboxamide [Example 104] | – | – | 2.5 to 25 nM | –
(1S,2S)—N-(6-(((R^•)-1-(5-methyl-7-(3-methyl-2,4-dioxoimidazolidin-1-yl)pyrazolo[1,5-a]pyridin-2-yl)ethyl)amino)pyrimidin-4-yl)-2-(4-methylpyrimidin-2-yl)cyclopropane-1-carboxamide [Example 106] | – | – | < 2.5 nM | < 500 nM

Where two headings read alike, the source gives them in different places.
